Biological target: T1, CB2 receptor (hCB2) (Homo sapiens, UniProt P34972)
T1 construct: expressed in transfected cells; host or cells: Xenopus laevis oocytes (cRNA injection)
Experiment: Two-electrode voltage-clamp, CB2-GIRK1/GIRK2-RGS4 coupling system expressed in Xenopus oocytes
Assay type: cell-based

Protein sequences, listed by entry. Tags and fused reporters are not part of them.
UniProt P34972, whole entry: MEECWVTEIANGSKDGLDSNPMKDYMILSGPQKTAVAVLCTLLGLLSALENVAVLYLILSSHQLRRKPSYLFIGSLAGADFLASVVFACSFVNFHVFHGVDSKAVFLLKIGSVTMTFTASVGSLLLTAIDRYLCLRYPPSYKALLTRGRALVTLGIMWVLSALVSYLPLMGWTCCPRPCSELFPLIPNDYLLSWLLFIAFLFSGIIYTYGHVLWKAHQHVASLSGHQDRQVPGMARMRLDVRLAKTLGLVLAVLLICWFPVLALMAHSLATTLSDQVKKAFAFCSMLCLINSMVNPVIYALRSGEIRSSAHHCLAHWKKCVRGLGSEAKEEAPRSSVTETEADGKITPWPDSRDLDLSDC

Cc1c(C(=O)c2cccc3ccccc23)c2cccc3c2n1[C@H](CN1CCOCC1)CO3 [WIN55,212-2, reference compound]
Receptor activation (receptor-dependent inward K+ currents, IK,WIN): activated
